In PubChem BioAssay AID707 (Columbia University Molecular Screening Center, 2007):
The list shows a part of the results, in another mix than the full data. Some results for these compounds are left out of this collection, so the calls shown say nothing about other tests. The source made the active and inactive calls. Rule as the data show it: active = inhibition above about 80%; inactive = the rest.

Amino acid sequences for entries named in this document (tags omitted).
UniProt P34913, whole entry: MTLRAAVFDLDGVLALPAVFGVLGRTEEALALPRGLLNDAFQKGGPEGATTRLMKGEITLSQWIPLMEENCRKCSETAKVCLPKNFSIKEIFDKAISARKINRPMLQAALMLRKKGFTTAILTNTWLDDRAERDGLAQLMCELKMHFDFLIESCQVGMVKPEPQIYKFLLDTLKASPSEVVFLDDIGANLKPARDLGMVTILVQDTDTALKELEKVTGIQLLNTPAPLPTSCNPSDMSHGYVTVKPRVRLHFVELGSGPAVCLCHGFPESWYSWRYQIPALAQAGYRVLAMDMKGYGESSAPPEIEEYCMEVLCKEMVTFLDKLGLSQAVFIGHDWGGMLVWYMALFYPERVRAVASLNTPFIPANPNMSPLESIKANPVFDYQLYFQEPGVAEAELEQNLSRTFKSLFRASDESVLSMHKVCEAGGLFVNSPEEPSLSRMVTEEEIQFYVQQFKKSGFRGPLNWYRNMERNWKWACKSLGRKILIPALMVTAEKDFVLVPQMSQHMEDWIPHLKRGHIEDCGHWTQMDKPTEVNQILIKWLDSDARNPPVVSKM

Target: Bifunctional epoxide hydrolase 2 (Homo sapiens) (UniProt P34913)
Experiment: soluble epoxide hydrolase inhibitors, primary screen, biochemical, human sEH (AID 707)
Conditions: recombinant human sEH enzymatic activity assay; at 2 µM; stronger effect = higher value

SMILES | inhibition
CN(C)c1cccc(C(=O)NCC2(N(C)C)CCCCC2)c1 | inactive: -6.3%
O=C(OC1CN2CCC1CC2)C(CO)(c1ccccc1)c1ccccc1 (stereo not drawn) | inactive: 1.2%
CC(C)N1C(=O)CC2(CCN(CCOC(=O)C(O)(c3ccccc3)c3ccccc3)CC2)C1=O | inactive: -8.4%
